Test system: interleukin-12 (IL-12)
Conditions: in vivo

With poly(lactic-co-glycolic acid) [PLGA] the “elevations in pro-inflammatory cytokine interleukin-12 (IL-12)” value was “does not lead to elevations”.
